Test results taken from PubChem BioAssay (NCI).
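Interpolation was linear, between the two tested concentrations surrounding the appropriate level; five concentrations were tested over 48 hours in 96-well plates. GI50: concentration for 50% inhibition of growth. TGI is the concentration that stops growth completely.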

Assays:
Test in all cases: growth of human tumour cells (NCI), 48 h
786-0 renal = system: 786-0 renal
A498 renal = system: A498 renal
A549 NSCLC = system: A549 NSCLC
ACHN renal = system: ACHN renal
BT-549 breast = system: BT-549 breast
CAKI-1 renal = system: CAKI-1 renal
CCRF-CEM leukemia = system: CCRF-CEM leukemia
COLO 205 colon = system: COLO 205 colon
DU-145 prostate = system: DU-145 prostate
EKVX NSCLC = system: EKVX NSCLC
HCC-2998 colon = system: HCC-2998 colon
HCT-116 colon = system: HCT-116 colon
HCT-15 colon = system: HCT-15 colon
HL-60(TB) leukemia = system: HL-60(TB) leukemia
HOP-62 NSCLC = system: HOP-62 NSCLC
HOP-92 NSCLC = system: HOP-92 NSCLC
HS 578T breast = system: HS 578T breast
HT29 colon = system: HT29 colon
IGROV1 ovarian = system: IGROV1 ovarian
K-562 leukemia = system: K-562 leukemia
KM12 colon = system: KM12 colon
LOX IMVI melanoma = system: LOX IMVI melanoma
M14 melanoma = system: M14 melanoma
MALME-3M melanoma = system: MALME-3M melanoma
MCF7 breast = system: MCF7 breast
MDA-MB-231 breast = system: MDA-MB-231 breast
MDA-MB-435 = system: MDA-MB-435
MDA-N = system: MDA-N
MOLT-4 leukemia = system: MOLT-4 leukemia
NCI-H226 lung = system: NCI-H226 lung
NCI-H23 lung = system: NCI-H23 lung
NCI-H322M lung = system: NCI-H322M lung
NCI-H460 lung = system: NCI-H460 lung
NCI-H522 lung = system: NCI-H522 lung
NCI/ADR-RES ovarian = system: NCI/ADR-RES ovarian
OVCAR-3 ovarian = system: OVCAR-3 ovarian
OVCAR-4 ovarian = system: OVCAR-4 ovarian
OVCAR-5 ovarian = system: OVCAR-5 ovarian
OVCAR-8 ovarian = system: OVCAR-8 ovarian
PC-3 prostate = system: PC-3 prostate
RPMI-8226 leukemia = system: RPMI-8226 leukemia
RXF 393 renal = system: RXF 393 renal
SF-268 CNS = system: SF-268 CNS
SF-295 CNS = system: SF-295 CNS
SF-539 CNS = system: SF-539 CNS
SK-MEL-2 melanoma = system: SK-MEL-2 melanoma
SK-MEL-28 melanoma = system: SK-MEL-28 melanoma
SK-MEL-5 melanoma = system: SK-MEL-5 melanoma
SK-OV-3 ovarian = system: SK-OV-3 ovarian
SN12C renal = system: SN12C renal
SNB-19 CNS = system: SNB-19 CNS
SNB-75 CNS = system: SNB-75 CNS
SR leukemia = system: SR leukemia
SW-620 colon = system: SW-620 colon
T-47D breast = system: T-47D breast
TK-10 renal = system: TK-10 renal
U251 CNS = system: U251 CNS
UACC-257 melanoma = system: UACC-257 melanoma
UACC-62 melanoma = system: UACC-62 melanoma
UO-31 renal = system: UO-31 renal

O=[N+]([O-])C1([N+](=O)[O-])COCOC1
GI50 (786-0 renal): > 100 µM
TGI (786-0 renal): > 100 µM
GI50 (A498 renal): > 100 µM
TGI (A498 renal): > 100 µM
GI50 (A549 NSCLC): > 100 µM
TGI (A549 NSCLC): > 100 µM
GI50 (ACHN renal): > 100 µM
TGI (ACHN renal): > 100 µM
GI50 (BT-549 breast): 27.3 µM
TGI (BT-549 breast): 92.6 µM
GI50 (CAKI-1 renal): > 100 µM
TGI (CAKI-1 renal): > 100 µM
GI50 (CCRF-CEM leukemia): 94 µM
TGI (CCRF-CEM leukemia): > 100 µM
GI50 (COLO 205 colon): 47.3 µM
TGI (COLO 205 colon): > 100 µM
GI50 (DU-145 prostate): > 100 µM
TGI (DU-145 prostate): > 100 µM
GI50 (EKVX NSCLC): > 100 µM
TGI (EKVX NSCLC): > 100 µM
GI50 (HCC-2998 colon): > 100 µM
TGI (HCC-2998 colon): > 100 µM
GI50 (HCT-116 colon): > 100 µM
TGI (HCT-116 colon): > 100 µM
GI50 (HCT-15 colon): 28.9 µM
TGI (HCT-15 colon): > 100 µM
TGI (HL-60(TB) leukemia): > 100 µM
GI50 (HOP-62 NSCLC): > 100 µM
TGI (HOP-62 NSCLC): > 100 µM
GI50 (HOP-92 NSCLC): 17.6 µM
TGI (HOP-92 NSCLC): 65.3 µM
GI50 (HS 578T breast): > 100 µM
TGI (HS 578T breast): > 100 µM
GI50 (HT29 colon): 42.2 µM
TGI (HT29 colon): > 100 µM
GI50 (IGROV1 ovarian): 27.5 µM
TGI (IGROV1 ovarian): > 100 µM
GI50 (K-562 leukemia): 24.5 µM
TGI (K-562 leukemia): > 100 µM
GI50 (KM12 colon): 61.9 µM
TGI (KM12 colon): > 100 µM
GI50 (LOX IMVI melanoma): > 100 µM
TGI (LOX IMVI melanoma): > 100 µM
GI50 (M14 melanoma): 38.7 µM
TGI (M14 melanoma): > 100 µM
GI50 (MALME-3M melanoma): 33.4 µM
TGI (MALME-3M melanoma): > 100 µM
GI50 (MCF7 breast): 78.2 µM
TGI (MCF7 breast): > 100 µM
GI50 (MDA-MB-231 breast): > 100 µM
TGI (MDA-MB-231 breast): > 100 µM
GI50 (MDA-MB-435): 17.9 µM
TGI (MDA-MB-435): 57.6 µM
GI50 (MDA-N): 17.7 µM
TGI (MDA-N): 41 µM
GI50 (MOLT-4 leukemia): > 100 µM
TGI (MOLT-4 leukemia): > 100 µM
GI50 (NCI-H226 lung): > 100 µM
TGI (NCI-H226 lung): > 100 µM
GI50 (NCI-H23 lung): 50.9 µM
TGI (NCI-H23 lung): > 100 µM
GI50 (NCI-H322M lung): > 100 µM
TGI (NCI-H322M lung): > 100 µM
GI50 (NCI-H460 lung): > 100 µM
TGI (NCI-H460 lung): > 100 µM
GI50 (NCI-H522 lung): 12.3 µM
TGI (NCI-H522 lung): 32 µM
GI50 (NCI/ADR-RES ovarian): 56.5 µM
TGI (NCI/ADR-RES ovarian): > 100 µM
GI50 (OVCAR-3 ovarian): > 100 µM
TGI (OVCAR-3 ovarian): > 100 µM
GI50 (OVCAR-4 ovarian): > 100 µM
TGI (OVCAR-4 ovarian): > 100 µM
GI50 (OVCAR-5 ovarian): > 100 µM
TGI (OVCAR-5 ovarian): > 100 µM
GI50 (OVCAR-8 ovarian): > 100 µM
TGI (OVCAR-8 ovarian): > 100 µM
GI50 (PC-3 prostate): > 100 µM
TGI (PC-3 prostate): > 100 µM
GI50 (RPMI-8226 leukemia): 63.5 µM
TGI (RPMI-8226 leukemia): > 100 µM
GI50 (RXF 393 renal): > 100 µM
TGI (RXF 393 renal): > 100 µM
GI50 (SF-268 CNS): > 100 µM
TGI (SF-268 CNS): > 100 µM
GI50 (SF-295 CNS): > 100 µM
TGI (SF-295 CNS): > 100 µM
GI50 (SF-539 CNS): > 100 µM
TGI (SF-539 CNS): > 100 µM
GI50 (SK-MEL-2 melanoma): 90.2 µM
TGI (SK-MEL-2 melanoma): > 100 µM
GI50 (SK-MEL-28 melanoma): > 100 µM
TGI (SK-MEL-28 melanoma): > 100 µM
GI50 (SK-MEL-5 melanoma): 22.1 µM
TGI (SK-MEL-5 melanoma): > 100 µM
GI50 (SK-OV-3 ovarian): > 100 µM
TGI (SK-OV-3 ovarian): > 100 µM
GI50 (SN12C renal): > 100 µM
TGI (SN12C renal): > 100 µM
GI50 (SNB-19 CNS): > 100 µM
TGI (SNB-19 CNS): > 100 µM
GI50 (SNB-75 CNS): > 100 µM
TGI (SNB-75 CNS): > 100 µM
GI50 (SR leukemia): 29.8 µM
TGI (SR leukemia): > 100 µM
GI50 (SW-620 colon): > 100 µM
TGI (SW-620 colon): > 100 µM
GI50 (T-47D breast): 44 µM
TGI (T-47D breast): > 100 µM
GI50 (TK-10 renal): > 100 µM
TGI (TK-10 renal): > 100 µM
GI50 (U251 CNS): > 100 µM
TGI (U251 CNS): > 100 µM
GI50 (UACC-257 melanoma): 65.9 µM
TGI (UACC-257 melanoma): > 100 µM
GI50 (UACC-62 melanoma): 81.9 µM
TGI (UACC-62 melanoma): > 100 µM
GI50 (UO-31 renal): > 100 µM
TGI (UO-31 renal): > 100 µM

COc1ccc2c3c1OC1C4(OC)C=CC5(CC4C(C)=O)[C@@H](C2)N(C)CC[C@]315 (some centres not stated)
TGI (786-0 renal): > 100 µM
TGI (A498 renal): > 100 µM
TGI (A549 NSCLC): > 100 µM
TGI (ACHN renal): > 100 µM
TGI (CAKI-1 renal): > 100 µM
TGI (CCRF-CEM leukemia): > 100 µM
TGI (COLO 205 colon): > 100 µM
TGI (DU-145 prostate): > 100 µM
TGI (EKVX NSCLC): > 100 µM
TGI (HCC-2998 colon): > 100 µM
TGI (HCT-116 colon): > 100 µM
TGI (HCT-15 colon): > 100 µM
TGI (HL-60(TB) leukemia): > 100 µM
TGI (HOP-62 NSCLC): > 100 µM
TGI (HOP-92 NSCLC): > 100 µM
TGI (HS 578T breast): > 100 µM
TGI (HT29 colon): > 100 µM
TGI (IGROV1 ovarian): > 100 µM
TGI (K-562 leukemia): > 100 µM
TGI (KM12 colon): > 100 µM
TGI (LOX IMVI melanoma): > 100 µM
TGI (M14 melanoma): > 100 µM
TGI (MALME-3M melanoma): > 100 µM
TGI (MCF7 breast): > 100 µM
TGI (MDA-MB-231 breast): > 100 µM
TGI (MDA-MB-435): > 100 µM
TGI (MDA-N): > 100 µM
TGI (MOLT-4 leukemia): > 100 µM
TGI (NCI-H226 lung): > 100 µM
TGI (NCI-H23 lung): > 100 µM
TGI (NCI-H322M lung): > 100 µM
TGI (NCI-H460 lung): > 100 µM
TGI (NCI-H522 lung): > 100 µM
TGI (NCI/ADR-RES ovarian): > 100 µM
TGI (OVCAR-3 ovarian): > 100 µM
TGI (OVCAR-4 ovarian): > 100 µM
TGI (OVCAR-5 ovarian): > 100 µM
TGI (OVCAR-8 ovarian): > 100 µM
TGI (PC-3 prostate): > 100 µM
TGI (RPMI-8226 leukemia): > 100 µM
TGI (RXF 393 renal): > 100 µM
TGI (SF-268 CNS): > 100 µM
TGI (SF-295 CNS): > 100 µM
TGI (SF-539 CNS): > 100 µM
TGI (SK-MEL-2 melanoma): > 100 µM
TGI (SK-MEL-28 melanoma): > 100 µM
TGI (SK-MEL-5 melanoma): > 100 µM
TGI (SK-OV-3 ovarian): > 100 µM
TGI (SN12C renal): > 100 µM
TGI (SNB-19 CNS): > 100 µM
TGI (SR leukemia): > 100 µM
TGI (SW-620 colon): > 100 µM
TGI (T-47D breast): > 100 µM
TGI (TK-10 renal): > 100 µM
TGI (U251 CNS): > 100 µM
TGI (UACC-257 melanoma): > 100 µM
TGI (UACC-62 melanoma): > 100 µM
TGI (UO-31 renal): > 100 µM
